BindingDB's records for doi:10.1021/jm0704550 (Cnrs, 2007)

The chains behind the UniProt entries cited, without tags or fusion partners.
UniProt Q92847, whole entry: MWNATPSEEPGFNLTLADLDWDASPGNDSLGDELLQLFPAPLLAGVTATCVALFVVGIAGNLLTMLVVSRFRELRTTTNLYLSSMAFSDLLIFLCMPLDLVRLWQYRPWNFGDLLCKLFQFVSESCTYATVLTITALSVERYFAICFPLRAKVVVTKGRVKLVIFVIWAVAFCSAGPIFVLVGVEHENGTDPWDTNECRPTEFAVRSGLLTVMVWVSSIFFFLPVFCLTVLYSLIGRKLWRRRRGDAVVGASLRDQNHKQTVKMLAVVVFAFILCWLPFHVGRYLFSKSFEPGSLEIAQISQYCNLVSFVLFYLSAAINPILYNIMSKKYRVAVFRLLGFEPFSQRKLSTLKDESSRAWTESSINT

Target: Growth hormone secretagogue receptor type 1 (Homo sapiens, UniProt Q92847)
Assay: Receptor Binding Studies
Procedure: Specific binding was determined by incubation of membranes from GHS-R1a transfected LLC cells with 125I-His9-ghrelin in the presence of increasing concentrations of compounds to obtain IC50. For the compounds behaving as agonists and displaying a high affinity binding for hGHS-R1a in radiolabeled binding experiments, the EC50 (the molar concentration of the agonist producing 50% of the maximal possible effect of that agonist) was determined using a dose-response curve. In the case of high-affinity antagonists, Kb values were determined using antagonist inhibition curves in the presence of 0.1 uM ghrelin (submaximal concentration).

Kb [nM]	Kb (pH 7.3, 25 °C) [nM]	Compound
27	–	COc1ccc(Cn2c(CCc3ccccc3)nnc2[C@@H](Cc2c[nH]c3ccccc23)NC(=O)C2CCCCN2)cc1 (single isomer, unassigned)
53	–	COc1ccc(Cn2c(CCc3ccccc3)nnc2[C@@H](Cc2c[nH]c3ccccc23)NC(=O)[C@H]2CCCCN2)cc1 [(2R)-N-[(1R)-2-(1H-indol-3-yl)-1-{4-[(4-methoxyphenyl)methyl]-5-(2-phenylethyl)-4H-1,2,4-triazol-3-yl}ethyl]piperidine-2-carboxamide]
–	19	COc1ccc(Cn2c(CCc3ccccc3)nnc2[C@@H](Cc2c[nH]c3ccccc23)NC(=O)CN)cc1 [JMV2959]
